Test results reported in patent publication US20240228488A1 (TAKEDA PHARMACEUTICAL COMPANY LIMITED, priority 2021, published 2024).

By UniProt entry, the sequences of proteins in these tests, tags left out. Residues count along the entry.
UniProt P03952, 391-638 limits assumed: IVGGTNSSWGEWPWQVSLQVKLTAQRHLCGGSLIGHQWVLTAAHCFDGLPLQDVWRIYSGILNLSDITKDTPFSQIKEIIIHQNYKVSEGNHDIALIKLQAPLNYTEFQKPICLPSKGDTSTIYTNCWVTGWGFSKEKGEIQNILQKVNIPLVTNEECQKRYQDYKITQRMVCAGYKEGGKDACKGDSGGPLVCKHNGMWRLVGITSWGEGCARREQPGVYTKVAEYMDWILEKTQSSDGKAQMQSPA
UniProt P03952, 20-390 partner limits assumed: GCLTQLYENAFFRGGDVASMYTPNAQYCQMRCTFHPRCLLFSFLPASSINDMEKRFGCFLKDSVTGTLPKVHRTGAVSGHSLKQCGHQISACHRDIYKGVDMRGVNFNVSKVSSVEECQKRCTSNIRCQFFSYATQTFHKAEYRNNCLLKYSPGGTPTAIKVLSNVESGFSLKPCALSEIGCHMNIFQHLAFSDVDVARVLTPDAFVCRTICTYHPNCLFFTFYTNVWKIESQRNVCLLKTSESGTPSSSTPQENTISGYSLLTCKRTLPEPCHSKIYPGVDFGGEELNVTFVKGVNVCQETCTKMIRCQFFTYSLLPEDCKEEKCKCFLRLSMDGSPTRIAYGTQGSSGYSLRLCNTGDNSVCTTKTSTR

Columns and labels:
[1] = molecular target: human activated kallikrein enzyme (Homo sapiens, UniProt P03952); experiment: Plasma kallikrein inhibition, fluorogenic PFR-AMC substrate, 500 pM activated kallikrein format; conditions: read-out: Primary Dose Response Assay: Average EC50, 300 uM PFR-AMC, 30 min preincubation, 10 min reaction
plasma kallikrein = plasma kallikrein (Homo sapiens, UniProt P03952); experiment: Neat human plasma assay, FXIIa contact pathway-activated, PFR-AMC substrate; conditions: read-out: Human Plasma Assay: IC90; citrated human plasma 78% final, 10 nM human FXIIa, 100 μM PFR-AMC

| SMILES | EC50 [1] [nM] | IC90 (plasma kallikrein) [nM] |
| --- | --- | --- |
| O=C(Nc1cc(NCc2cn3cc(C4CC4)cc(N4CC5CC5C4=O)c3n2)ncn1)[C@H]1C[C@@H]1c1cccc(Cl)c1 (single isomer, unassigned) | 1 to 10 |  |
| O=C(Nc1cc(NCc2cn3cc(C4CC4)cc(N4CC5CC5C4=O)c3n2)ccn1)[C@H]1C[C@@H]1c1cccc(Cl)c1 (single isomer, unassigned) | < 1 | 400 to 1500 |
| CC1CCC(=O)N1c1cc(C2CC2)cn2cc(CNc3ccnc(NC(=O)[C@H]4C[C@@H]4c4cccc(Cl)c4)c3)nc12 (single isomer, unassigned) | < 1 | 400 to 1500 |
| Cc1ccnc([C@H]2C[C@@H]2C(=O)Nc2cc(N[C@H](C)c3cn4cc(C5CC5)cc(N5CC6CC6C5=O)c4n3)ncn2)n1 (single isomer, unassigned) | < 1 |  |
